Measured values published in patent US11014933B2 (priority 2018, dated 2021).

Biological target: KOR (Homo sapiens, UniProt P41145)
Assay: Competition radioligand binding, KOR ([3H]diprenorphine)
Details: ratio of Ki KOR to Ki MOR

In the case of `O=C(N[C@@H]1CC[C@@]2(O)[C@H]3Cc4ccc(O)c5c4[C@@]2(CCN3CC2CC2)[C@H]1O5)c1ccncc1F` [Compound 1], the Selectivity κ/μ is reported as 13.3.
